PMC11802874, “The hypolipidemic effect of MI-883, the combined CAR agonist/ PXR antagonist, in diet-induced hypercholesterolemia model” (Nature Communications, 2025)

Tested on: HepaRG cells

For `CO[C@H]1/C=C/O[C@@]2(C)Oc3c(C)c(O)c4c(O)c(c(/C=N/N5CCN(C)CC5)c(O)c4c3C2=O)NC(=O)/C(C)=C\C=C\[C@H](C)[C@H](O)[C@@H](C)[C@@H](O)[C@@H](C)[C@H](OC(C)=O)[C@@H]1C` [rifampicin, reference compound], the “CYP7A1 mRNA in HepaRG cells” value was “downregulated”.
